Laboratory results: published antibiotic growth screens (doi:10.1038/s41589-023-01349-8)
The list shows a part of the results.

The molecules below were run on A. baumannii ATCC 17978 (assay: relative growth (fraction of control); higher = less inhibition). Settings: 50 µM.
With `Cl.O=C1CC2(CCCC2)CC(=O)N1CCCCN1CCN(c2ncccn2)CC1` the relative growth was 0.898. Work on `CCn1c2c(c3cc(C4CCCCC4)ccc31)CCC/C2=N\O` yielded a relative growth of 1.21. In the case of `C[C@H]1CN([C@@H](C)CO)S(=O)(=O)c2ccc(-c3ccc(F)cc3)cc2O[C@@H]1CN(C)S(C)(=O)=O`, the relative growth is reported as 0.877. `CCCCc1oc2ccccc2c1C(=O)c1cc(I)c(OCCN(CC)CC)c(I)c1.Cl` gave a relative growth of 1.1. `Cc1ncc([N+](=O)[O-])n1CC(C)O` (stereo not given) gave a relative growth of 0.999. Molecule `CCn1c(=S)[nH]c2ccccc21` has a relative growth of 1.01. Work on `COc1ccc(S(=O)(=O)N2C[C@@H](O)COC[C@@H]3O[C@@H](CC(=O)NCc4ccc(Cl)c(Cl)c4)CC[C@H]32)cc1` yielded a relative growth of 1.03. Work on `COC(=O)c1c(C)cc(OC(=O)c2c(C)cc(O)c(C=O)c2O)c(C)c1O` yielded a relative growth of 0.961. Molecule `C[C@H]1CN([C@@H](C)CO)S(=O)(=O)c2ccc(C#CC3(O)CCCC3)cc2O[C@@H]1CN(C)C(=O)c1ccccc1` has a relative growth of 0.909. For `O=C(C[C@@H]1C=C[C@H](NC(=O)c2ccncc2)[C@@H](CO)O1)NCc1ccncn1`, the relative growth was 1.18. `CS(=O)(=O)Cc1ccc(C(=O)O)cc1` showed a relative growth of 0.955. With `CC1=C(/C=C/C(C)=C/C=C/C(C)=C/CO)C(C)(C)CCC1` the relative growth was 1.17. Molecule `Cc1ccc(Sc2c(-c3ccccc3)nc3sccn23)cc1` has a relative growth of 1.18. With `CCNC(=O)C[C@@H]1C=C[C@@H](NC(=O)C2CC2)[C@@H](CO)O1` the relative growth was 1.25. `CCCC(=O)Nc1ccc2c(c1)OC[C@@H](C)N(S(=O)(=O)c1cn(C)cn1)C[C@H](C)[C@H](OC)CN(C)C2=O` showed a relative growth of 0.996. In the case of `CC1(C)CCC[C@@]2(C)C1CC[C@@]1(C)OCC[C@@H]12` (stereo not given in full), the relative growth is reported as 1.02. In the case of `CO[C@H]1CN(C)C(=O)c2cc(NC(=O)C3CC3)ccc2OC[C@@H](C)N(C(=O)C2CCOCC2)C[C@@H]1C`, the relative growth is reported as 1.08. `COc1ccc2cc([C@H](C)C(=O)O)ccc2c1` gave a relative growth of 1.02. `O=C(O)[C@H]1CCCNC1` gave a relative growth of 0.984. In the case of `CC(C)NC(=O)N(C)C[C@@H]1Oc2cc(-c3ccccc3F)ccc2S(=O)(=O)N([C@@H](C)CO)C[C@H]1C`, the relative growth is reported as 0.909. Work on `CN(C)CCCNC(=O)C[C@@H]1C=C[C@@H](NS(=O)(=O)c2ccccc2)[C@@H](CO)O1` yielded a relative growth of 1.02. Molecule `CN(C)CCCNC(=O)C[C@@H]1C=C[C@@H](NC(=O)Cc2cccnc2)[C@H](CO)O1` has a relative growth of 0.95. Work on `O=C(O)c1ccc2ccccc2c1` yielded a relative growth of 0.931. In the case of `Nc1cc(N2CCCCC2)nc(N)[n+]1[O-]`, the relative growth is reported as 1.07. `NCCn1nc([C@H]2CCN(C(=O)c3csc4c3CCCC4)C2)c2nccnc21` showed a relative growth of 0.939. Molecule `O=C(/C=C/c1ccccc1)c1ccc(O[C@@H]2O[C@H](CO)[C@@H](O)[C@H](O)[C@H]2O)cc1O` has a relative growth of 0.992. In the case of `COc1ccc(S(=O)(=O)N(C)C[C@H]2Oc3c(NC(=O)Nc4cccc5ccccc45)cccc3C(=O)N([C@@H](C)CO)C[C@@H]2C)cc1`, the relative growth is reported as 0.932. In the case of `CN(C)C(=O)C[C@@H]1CC[C@@H](NC(=O)C2CC2)[C@@H](CO)O1`, the relative growth is reported as 1.06. Molecule `O=C(O)c1cc(=O)[nH]c(=O)[nH]1` has a relative growth of 0.877. `O.OC[C@@H](O)C(O[C@@H]1O[C@H](CO)[C@H](O)[C@H](O)[C@H]1O)[C@H](O)[C@@H](O)CO` (stereo not given in full) was tested, and the relative growth was 1.04. Work on `CN(C)[C@@H](CCOc1cccc2ccccc12)c1ccccc1.Cl` yielded a relative growth of 0.513. `CC[C@@H](C)c1ccc(NC(=O)c2ccc(N(CC)CC)cc2)cc1` was tested, and the relative growth was 1.21. Molecule `C=CCOC(=O)[C@H]1[C@@H]2C(=O)O[C@@H](c3ccccc3)[C@@H](c3ccccc3)N2[C@@H](c2ccc(OCCOC(=O)[C@H]3C[C@H]4C(=O)N[C@@H](CCCCNC(C)=O)C(=O)N4[C@H]3c3ccc(O)cc3)cc2)[C@]12C(=O)Nc1ccccc12` has a relative growth of 0.879. Work on `O=S(=O)(c1ccc(-n2cnnn2)cc1)N1CCNCC1` yielded a relative growth of 1.11. `CC(=O)NCCCCCC(=O)O` was tested, and the relative growth was 0.968. `CN(C)c1ncnc2c1ncn2[C@H]1O[C@@H](CO)[C@@H](N)[C@@H]1O` was tested, and the relative growth was 0.99. In the case of `COCC#Cc1ccc2c(c1)O[C@@H](CN(C)C(=O)COC)[C@H](C)CN([C@@H](C)CO)S2(=O)=O`, the relative growth is reported as 0.905. For `CCNC(=O)C[C@@H]1C=C[C@H](NC(=O)C2CCOCC2)[C@@H](CO)O1`, the relative growth was 0.89. In the case of `CC(C)=CCOc1cc(C)cc2oc(=O)cc(-c3ccccc3)c12`, the relative growth is reported as 1.11. Molecule `COc1ccc(NC(=O)N2C[C@@H](O)COC[C@H]3O[C@H](CC(=O)NC4Cc5ccccc5C4)CC[C@@H]32)cc1` has a relative growth of 0.941. `O=C(C[C@@H]1C[C@@H]2c3cc(NC(=O)Cc4ccncc4)ccc3O[C@@H]2[C@H](CO)O1)NCc1ccc2c(c1)OCO2` showed a relative growth of 0.965. With `CS(=O)(=O)c1ccc([C@H](O)[C@H](CF)NC(=O)C(Cl)Cl)cc1` the relative growth was 0.776. Molecule `COc1ccccc1C#Cc1ccc2c(c1)O[C@H](CN(C)Cc1cncnc1)[C@@H](C)CN([C@H](C)CO)S2(=O)=O` has a relative growth of 0.701. `COc1ccc([Si](C)(C)[C@@H]2[C@@H](CC(=O)N3CCC[C@H]3CO)O[C@]3(C(=O)N(Cc4cccc(N5C(=O)c6cccc7cccc5c67)c4)c4ccccc43)[C@H]2C)cc1` gave a relative growth of 1. In the case of `COc1ccc([C@@H](C)C(=O)c2ccc(O)cc2O)cc1`, the relative growth is reported as 0.94. `COc1ccc(S(=O)(=O)N[C@H]2C=C[C@H](CC(=O)N3CCC(Cc4ccccc4)CC3)O[C@H]2CO)cc1` showed a relative growth of 0.758. Work on `CCNC(=O)C[C@H]1C=C[C@@H](NC(=O)C2CCOCC2)[C@H](CO)O1` yielded a relative growth of 0.827. `O=C(NCc1nc2ccccc2[nH]1)C1=C[C@@H](c2ccc(Br)cc2)C[C@@H](OCc2ccc(CO)cc2)O1` showed a relative growth of 0.942. Work on `CC(=O)c1ccc[nH]1` yielded a relative growth of 0.955. For `O=S(=O)([O-])CCSSCCS(=O)(=O)[O-].[Na+].[Na+]`, the relative growth was 1.04. `CC(C)(C)CC(C)(C)c1cc(Cc2cc(C(C)(C)CC(C)(C)C)cc(-n3nc4ccccc4n3)c2O)c(O)c(-n2nc3ccccc3n2)c1` was tested, and the relative growth was 0.87. Molecule `COc1cc2nc(N(C)CCCNC(=O)C3CCCO3)nc(N)c2cc1OC.Cl` (stereo not given) has a relative growth of 0.871. `NC(=O)c1cnccn1` was tested, and the relative growth was 1.09. For `O=C(C[C@H]1CC[C@@H](NC(=O)CN2CCOCC2)[C@H](CO)O1)NC1CCC1`, the relative growth was 0.964. Molecule `COc1cccc(S(=O)(=O)N(C)C[C@@H]2Oc3cc(C4=CCCC4)ccc3S(=O)(=O)N([C@H](C)CO)C[C@@H]2C)c1` has a relative growth of 1.08.
